The list shows a part of the results, in another mix than the full data. Some results for these compounds are left out of this collection, so the calls shown say nothing about other tests. The source made the active and inactive calls.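 How the source made its calls: active means relative growth at most 50% at the other temperature and 20+ points below 30 °C, or under 10% at both; inactive means the rest, inconclusive results apart.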

A short description of the assay: S. aureus growth inhibition at 42 and 30 °C, primary screen, LtaS inhibitor project, RN4220, two temperatures (AID 720641). As to conditions: OD600, 20 h, 42 °C, hits give low values.
Turning to `O=C(NCC1(N2CCCCC2)CCCCC1)c1ccc2c(c1)OCCO2`, the relative growth was inactive: 87.7%.

On to `CC(C)Oc1ccc(C(=O)NCC2(N(C)C)CCCCC2)cc1`, for which the relative growth is inactive: 104%.

In the case of `COc1cc(C(=O)NCC2(N(C)C)CCCCC2)cc(OC)c1OC`, the relative growth is inactive: 116%.

Consider `Cc1cccc(C(=O)NCC2(N(C)C)CCCCC2)c1`, for which the relative growth was inactive: 113%.

In the case of `CN1C2CCC1CC(OC(=O)C(O)(c1ccccc1)c1ccccc1)C2` (centres undefined), the relative growth was inactive: 104%.

As for `CC(C)COc1ccc(C(=O)NCC2(N(C)C)CCCCC2)cc1`, the relative growth was inactive: 91%.

`O=C(OC1CN2CCC1CC2)C(CO)(c1ccccc1)c1ccccc1` (centres undefined): the relative growth is inactive: 106%.

`COc1cccc(C(=O)NCC2(N3CCOCC3)CCCCC2)c1`: the relative growth is inactive: 114%.

For the compound `COc1ccc(C(=O)NCC2(N(C)C)CCCCC2)cc1Cl`, the relative growth is inactive: 115%.

In the case of `CN(C)C1(CNC(=O)c2ccncc2)CCCCC1`, the relative growth is inactive: 114%.

For `N#CC(C#N)=Cc1ccccc1`, the relative growth is inactive: 52.5%.

For `CCOc1cccc(C(=O)NCC2(N(C)C)CCCCC2)c1`, the relative growth is inactive: 96.1%.

Turning to `COc1ccc(OC)c(C=C(C#N)C#N)c1`, the relative growth was inactive: 94.7%.

Turning to `CCCCOc1ccccc1C(=O)NCC1(N(C)C)CCCCC1`, the relative growth was inactive: 108%.

As for `CN(C)C1(CNC(=O)c2ccccc2[N+](=O)[O-])CCCCC1`, the relative growth was inactive: 96.6%.

As for `CN(C)c1ccc(C(=O)NCC2(N(C)C)CCCCC2)cc1`, the relative growth was inactive: 75.7%.

Consider `CN(C)C1(CNC(=O)c2ccccc2F)CCCCC1`, for which the relative growth was inactive: 100%.

`CN(C)C1(CNC(=O)c2cccc(Cl)c2)CCCCC1`: the relative growth is inactive: 113%.

On to `O=C(NCC1(N2CCOCC2)CCCCC1)c1cnc(Cl)c(Cl)c1`, for which the relative growth is inactive: 83.1%.

For the origin of these results see PubChem BioAssay AID720641 (ICCB-Longwood Screening Facility, Harvard Medical School, 2013).
